Target: T1, Cytochrome P450 11B2, mitochondrial (Homo sapiens, UniProt P19099)
T1 sequence (P19099 whole entry): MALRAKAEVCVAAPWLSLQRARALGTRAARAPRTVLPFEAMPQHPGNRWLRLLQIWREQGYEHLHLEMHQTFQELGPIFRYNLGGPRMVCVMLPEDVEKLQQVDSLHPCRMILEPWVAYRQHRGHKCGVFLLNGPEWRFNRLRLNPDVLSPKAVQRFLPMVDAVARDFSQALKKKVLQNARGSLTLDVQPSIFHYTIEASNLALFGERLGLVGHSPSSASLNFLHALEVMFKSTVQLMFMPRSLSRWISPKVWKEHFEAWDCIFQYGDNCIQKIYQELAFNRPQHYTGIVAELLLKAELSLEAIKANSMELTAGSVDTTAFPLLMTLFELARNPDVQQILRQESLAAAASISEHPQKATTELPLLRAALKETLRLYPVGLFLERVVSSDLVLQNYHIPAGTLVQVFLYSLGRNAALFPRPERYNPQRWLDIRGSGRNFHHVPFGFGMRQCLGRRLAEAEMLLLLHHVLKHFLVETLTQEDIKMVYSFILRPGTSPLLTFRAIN
Assay: Inhibition of human CYP11B2 expressed in hamster V79 MZh cells at 500 nM
Type: cell-based
Conditions: V79MZh

| inhibition at 0.5 µM [%] | Compound |
| --- | --- |
| 93 | CCN1C(=O)CCc2cc(-c3cccnc3)ccc21 |
| 97 | O=C1CCc2cc(-c3cccnc3)cc(Cl)c2N1 |
| 92 | O=C1CSc2cc(-c3cccnc3)ccc2N1 |
| 88 | O=C1CCc2cc(-c3cccnc3)ccc2N1 |
